Values of other authors, collected in publication PMC8583936, “Machine Learning Assisted Approach for Finding Novel High Activity Agonists of Human Ectopic Olfactory Receptors” (International Journal of Molecular Sciences, 2021).

Target: T1, OR1A1 (Homo sapiens, UniProt Q9P1Q5)
T1 sequence (Q9P1Q5 1-309): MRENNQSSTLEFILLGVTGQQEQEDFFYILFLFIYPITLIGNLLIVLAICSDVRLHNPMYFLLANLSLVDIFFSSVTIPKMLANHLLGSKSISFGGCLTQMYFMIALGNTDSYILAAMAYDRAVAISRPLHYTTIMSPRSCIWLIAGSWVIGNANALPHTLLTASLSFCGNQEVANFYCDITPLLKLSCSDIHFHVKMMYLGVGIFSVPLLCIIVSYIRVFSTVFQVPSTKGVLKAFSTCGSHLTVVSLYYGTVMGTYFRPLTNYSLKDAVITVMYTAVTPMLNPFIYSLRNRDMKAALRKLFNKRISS
Details: cited from earlier work

CC(=O)/C=C/C1C(C)=CCCC1(C)C (stereo not drawn) [Α-ionone]
Class (agonist / non-agonist / conflicting info.) for OR1A1: Non-agonist
